# Source: paper PMC3529200 (Bioorganic & medicinal chemistry letters, 2010)
# Tested on: SHR hypertension
# Assay: SHR rat model of hypertension
# Format: in vivo
# Conditions: 100 mg/kg
smiles,measurement,value
"CC(=O)N1CCC(NC(=O)NC23CC4CC(CC(C4)C2)C3)CC1 [Compound 14a, 1-(1-Acetyl-piperidin-4-yl)-3-adamantan-1-yl-urea]",effect on mean blood pressure,no effect
